Laboratory results reported in ChEMBL document CHEMBL1130243, “Potent and selective inhibition of neuronal nitric oxide synthase by N omega-propyl-L-arginine” (J Med Chem, 1997).

Target: T1, Nitric oxide synthase 3 (Bos taurus, UniProt P29473)
T1 sequence (P29473 whole entry): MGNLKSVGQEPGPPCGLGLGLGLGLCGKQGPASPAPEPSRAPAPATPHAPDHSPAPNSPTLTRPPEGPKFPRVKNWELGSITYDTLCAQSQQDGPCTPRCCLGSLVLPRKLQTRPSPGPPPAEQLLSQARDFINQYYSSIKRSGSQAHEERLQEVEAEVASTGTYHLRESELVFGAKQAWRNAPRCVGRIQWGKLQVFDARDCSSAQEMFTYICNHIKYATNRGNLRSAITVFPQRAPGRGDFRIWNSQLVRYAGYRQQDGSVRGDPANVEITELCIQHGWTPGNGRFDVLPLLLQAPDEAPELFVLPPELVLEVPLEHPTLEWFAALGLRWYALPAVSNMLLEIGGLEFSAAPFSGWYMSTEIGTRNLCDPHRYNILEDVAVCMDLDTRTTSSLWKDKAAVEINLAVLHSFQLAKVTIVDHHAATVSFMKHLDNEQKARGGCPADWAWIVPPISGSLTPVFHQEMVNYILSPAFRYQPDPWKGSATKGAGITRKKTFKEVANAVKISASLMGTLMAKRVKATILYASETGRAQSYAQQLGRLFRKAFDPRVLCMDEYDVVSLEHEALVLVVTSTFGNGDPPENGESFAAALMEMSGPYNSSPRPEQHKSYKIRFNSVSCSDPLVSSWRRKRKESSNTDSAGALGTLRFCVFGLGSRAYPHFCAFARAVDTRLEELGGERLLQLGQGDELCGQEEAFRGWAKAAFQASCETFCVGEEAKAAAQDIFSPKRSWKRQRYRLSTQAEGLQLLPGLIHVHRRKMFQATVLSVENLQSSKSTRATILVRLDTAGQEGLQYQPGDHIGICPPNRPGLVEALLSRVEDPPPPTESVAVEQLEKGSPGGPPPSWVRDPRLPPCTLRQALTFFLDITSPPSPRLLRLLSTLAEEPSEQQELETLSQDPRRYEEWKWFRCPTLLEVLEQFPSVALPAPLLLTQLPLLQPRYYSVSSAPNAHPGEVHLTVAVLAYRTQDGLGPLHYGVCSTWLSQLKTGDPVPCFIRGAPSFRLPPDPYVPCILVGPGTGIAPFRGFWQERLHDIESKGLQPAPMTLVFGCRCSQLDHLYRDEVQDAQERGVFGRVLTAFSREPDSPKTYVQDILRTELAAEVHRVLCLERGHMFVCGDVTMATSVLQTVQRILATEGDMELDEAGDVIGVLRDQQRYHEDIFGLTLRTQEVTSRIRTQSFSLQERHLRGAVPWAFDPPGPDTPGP
Assay: Compound was tested for binding affinity against Endothelial nitric oxide synthase

SMILES	Ki
C#CC/N=C(/N)NCCCC(N)C(=O)O (configuration not stated)	0.81 µM
CNC(=N)NCCC[C@H](N)C(=O)O [TILARGININE]	5.9 µM
